This is an account of results in patent US8785468B2, “Phenylalanine amide derivatives useful for treating insulin-related diseases and conditions” (Amgen Inc., priority 2009, dated 2014).

Protein sequences, listed by entry. Tags and fused reporters are not part of them.
UniProt Q7Z601, whole entry: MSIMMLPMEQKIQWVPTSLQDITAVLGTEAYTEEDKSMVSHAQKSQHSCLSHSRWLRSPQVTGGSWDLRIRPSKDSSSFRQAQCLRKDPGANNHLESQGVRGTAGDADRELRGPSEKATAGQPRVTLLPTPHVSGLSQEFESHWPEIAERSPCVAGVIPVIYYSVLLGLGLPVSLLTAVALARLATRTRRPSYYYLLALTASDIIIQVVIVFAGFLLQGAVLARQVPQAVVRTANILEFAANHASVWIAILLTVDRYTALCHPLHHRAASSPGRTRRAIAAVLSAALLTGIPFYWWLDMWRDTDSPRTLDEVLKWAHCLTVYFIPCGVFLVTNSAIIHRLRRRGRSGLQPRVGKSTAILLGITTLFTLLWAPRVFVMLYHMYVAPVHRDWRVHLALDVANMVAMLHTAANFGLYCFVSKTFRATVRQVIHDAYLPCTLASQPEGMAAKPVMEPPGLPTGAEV

For this test, the target named is human receptor found in pancreatic islet cells (Homo sapiens, UniProt Q7Z601). As to the kind of experiment: Activation of intracellular IP3 signaling in transfected cells (Activation Assay). As to conditions: read-out: Activity (EC50); calculated from IP3 concentration measurements in cells transfected with the human receptor; tested form: TFA.

As for `Nc1nnc(-c2cc(-c3ccncc3)cc3c2CCN3C(=O)[C@@H](N)Cc2ccccc2)o1`, the EC50 is 100 to 1000 nM.
